The values below come from US8765153B2, “Levalbuterol salt” (Sunovion Pharmaceuticals Inc., priority 2002, dated 2014).

The nature of this data set: Solubility of crystals in HFA 134/Ethanol Blends.

With levalbuterol L-tartrate, the “Solubility in HFA 134/Ethanol Blends” value was determined as 0.00 µg/g (Actual Ethanol % 0.00, Day 2); 0.02 µg/g (Actual Ethanol % 0.00, Day 6-8); 0.12 µg/g (Actual Ethanol % 0.00, Day 57-65); 0.07 µg/g (Actual Ethanol % 2.01, Day 1); 0.10 µg/g (Actual Ethanol % 2.01, Day 2); 0.44 µg/g (Actual Ethanol % 2.01, Day 6-8). Besides, the “Solubility in HFA 134/Ethanol Blends” value runs as follows: (Actual Ethanol % 2.01, Day 57-65) 1.18 µg/g; (Actual Ethanol % 5.28, Day 1) 0.69 µg/g; (Actual Ethanol % 5.28, Day 2) 0.94 µg/g; (Actual Ethanol % 5.28, Day 6-8) 1.81 µg/g; (Actual Ethanol % 5.28, Day 57-65) 2.97 µg/g; (Actual Ethanol % 9.80, Day 1) 1.65 µg/g. In addition, the “Solubility in HFA 134/Ethanol Blends” value runs as follows: (Actual Ethanol % 9.80, Day 2) 2.32 µg/g; (Actual Ethanol % 9.80, Day 6-8) 5.30 µg/g; (Actual Ethanol % 9.80, Day 57-65) 6.82 µg/g. Further, the “solubility in ethanol compared with levalbuterol hydrochloride” value (HFA 134/ethanol blends) was “substantially lower solubility”.
